Values of other authors, collected in PMC12308805, “Ultrahigh-Throughput Virtual Screening Strategies against PPI Targets: A Case Study of STAT Inhibitors” (Journal of Chemical Information and Modeling, 2025).

System: STAT3
Details: sheet 6QHD_actives_decoys; retrospective screening set for STAT3 SH2 domain (PDB 6QHD); decoys generated with DUD-E and presumed inactive, not tested; ref DUD-E; cited from earlier work

O=C(CCC(=O)NNC(=O)c1cc([N+](=O)[O-])cc([N+](=O)[O-])c1)N/N=C(\O)c1cc([N+](=O)[O-])cc([N+](=O)[O-])c1
Type: Inactive (Decoy)
